For experiment [1], the target named is T1, Eno1 (CaEno1) (Candida albicans, UniProt P30575).
T1 sequence (P30575 1-440): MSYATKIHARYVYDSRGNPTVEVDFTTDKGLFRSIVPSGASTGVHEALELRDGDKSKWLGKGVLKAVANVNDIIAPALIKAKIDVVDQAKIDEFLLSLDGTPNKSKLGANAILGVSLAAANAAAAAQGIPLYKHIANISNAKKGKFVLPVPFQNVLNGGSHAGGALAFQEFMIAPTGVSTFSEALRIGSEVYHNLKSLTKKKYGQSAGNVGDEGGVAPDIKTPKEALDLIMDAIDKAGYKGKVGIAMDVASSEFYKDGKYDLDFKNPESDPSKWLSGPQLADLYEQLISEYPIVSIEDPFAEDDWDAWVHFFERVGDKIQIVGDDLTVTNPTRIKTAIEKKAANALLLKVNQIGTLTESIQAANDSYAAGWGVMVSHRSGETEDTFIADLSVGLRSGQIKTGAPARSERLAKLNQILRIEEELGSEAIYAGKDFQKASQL
In words: biochemical. The following applies: for Kd: SPR.

The target of experiment [2] is T1, Eno1 (CaEno1). The following applies: SPR. A general note: In SPR one partner is held on a chip, and binding of the other changes the refractive index at the surface.
A further experiment addresses T2, CaEno1 (Candida albicans, UniProt P30575).
T2 sequence (P30575 1-440): T1 sequence (P30575 1-440)
In words: biochemical.

Experiment [3] concerns the target interaction of Eno1 and PLG (Candida albicans, UniProt P30575). As to the kind of experiment: biochemical.

The Kd is the equilibrium constant for the complex coming apart. A higher Kd goes with weaker binding. Broadly, the IC50 is the concentration that gives 50% inhibition. Lower therefore signals higher potency. For `O=c1cc(-c2ccccc2)oc2cc(O)c(O)c(O)c12` [BE, Baicalein], the Kd at Eno1 (CaEno1) [1] (affinity constant KD, kinetic model) is 8.12 µM; on Eno1 (CaEno1) [1] (binding affinity KD, steady-state affinity analysis) it was 7.93 µM. Also, on Eno1 (CaEno1) [1] (read-out: association rate constant ka), the kon was 1230 M⁻¹ s⁻¹. Also, the koff at Eno1 (CaEno1) [1] (read-out: dissociation rate constant Kd) worked out at 0.01 s⁻¹. In addition, the “theoretical stoichiometric ratio (SR)” value on Eno1 (CaEno1) [2] was “around 1.03”. The IC50 was 62.9 ± 2.2 µM at CaEno1 and 2.95 µM in experiment [3].

The values are drawn from PMC9430770, “Baicalein Acts against Candida albicans by Targeting Eno1 and Inhibiting Glycolysis” (Microbiology Spectrum, 2022).
